Results reported in US8354403B2, “Pyrrolidine derived beta 3 adrenergic receptor agonists” (Merck Sharp & Dohme Corp., priority 2009, dated 2013).
Like-named read-outs stand apart in the source and are kept apart here.

Protein sequences, listed by entry. Tags and fused reporters are not part of them.
UniProt P13945, whole entry: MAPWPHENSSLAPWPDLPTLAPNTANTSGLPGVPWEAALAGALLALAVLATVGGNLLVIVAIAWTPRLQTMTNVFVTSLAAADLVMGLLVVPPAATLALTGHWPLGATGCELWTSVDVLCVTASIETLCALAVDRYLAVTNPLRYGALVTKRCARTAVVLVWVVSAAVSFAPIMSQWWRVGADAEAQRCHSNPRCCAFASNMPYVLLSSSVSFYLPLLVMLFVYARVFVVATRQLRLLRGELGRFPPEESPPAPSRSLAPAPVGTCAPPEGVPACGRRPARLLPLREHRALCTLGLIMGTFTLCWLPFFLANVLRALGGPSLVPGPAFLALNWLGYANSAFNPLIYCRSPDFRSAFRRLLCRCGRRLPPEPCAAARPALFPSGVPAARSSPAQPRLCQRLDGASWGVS

Target: human β3 adrenergic receptor (Homo sapiens, UniProt P13945)
Experiment: Beta-3 agonist in vitro functional assay: cAMP production (LANCE TR-FRET) in CHO cells stably transfected with the cloned β3 receptor
Assay type: cell-based
Details: read-out: Human β3 agonist functional activity
[1] = Table 8, Beta-3 agonist in vitro functional assay
[2] = Table 12, human β3 functional activity given as ranges

Compound | EC50 (Table 6, cAMP, CHO cells) | also measured
CC([C@H]1[C@@H]2CN(C(=O)c3ccc(C[C@@H]4CC[C@H]([C@H](O)c5ccccc5)N4)cc3)C[C@@H]21)n1ccnn1 (some centres unmarked) | 100 to 999 nM | 
O=C(c1ccc(C[C@@H]2CC[C@H]([C@H](O)c3cccnc3)N2)cc1)N1CCC(n2ncnn2)CC1 |  | EC50 (Table 5, cAMP, CHO cells): 10 to 99.9 nM
O=C(c1ccc(C[C@@H]2CC[C@H]([C@H](O)c3ccccc3)N2)cc1)N1CCn2cc(C(F)(F)F)nc2C1 |  | EC50 (Table 11, cAMP, CHO cells): 100 to 999 nM
O=C(c1ccc(C[C@@H]2CC[C@H]([C@H](O)c3ccccc3)N2)cc1)N1CCC2(CCOC2=O)CC1 [Example 239, 8-[4-({(2S,5R)-5-[(R)-hydroxy(phenyl)methyl]pyrrolidin-2-yl}methyl)benzoyl]-2-oxa-8-azaspiro[4.5]decan-1-one] |  | EC50 [1]: 1 to 9.9 nM
O=C(c1ccc(C[C@@H]2CC[C@H]([C@H](O)c3ccccc3)N2)cc1)N1CC2CC(n3cccn3)CC2C1 (stereo partly drawn) [Example 1, (R)-phenyl[(2R,5S)-5-(4-{[5-(1H-pyrazol-1-yl)hexahydrocyclopenta[c]pyrrol-2(1H)-yl]carbonyl}benzyl)pyrrolidin-2-yl]methanol] |  | EC50 (Table 4, cAMP, CHO cells): 1 to 9.9 nM
COC(=O)C1CN(C(=O)c2ccc(C[C@@H]3CC[C@H]([C@H](O)c4ccccc4)N3)cc2)C1 |  | EC50 (Table 4, cAMP, CHO cells): 100 to 999 nM
CC(C)c1nc([C@H]2[C@@H]3CN(C(=O)c4ccc(C[C@@H]5CC[C@H]([C@H](O)c6ccccc6)N5)cc4)C[C@@H]32)no1 | 10 to 99.9 nM | 
CC(c1ccn[nH]1)N1CCN(C(=O)c2ccc(C[C@@H]3CC[C@H]([C@H](O)c4ccccc4)N3)cc2)CC1 (single isomer, unassigned) |  | EC50 [2]: 1 to 9.9 nM
CC([C@H]1[C@@H]2CN(C(=O)c3ccc(C[C@@H]4CC[C@H]([C@H](O)c5ccccc5)N4)cc3)C[C@@H]21)n1cncn1 (some centres unmarked) | 100 to 999 nM | 
O=C(c1ccc(C[C@@H]2CC[C@H]([C@H](O)c3ccccc3)N2)cc1)N1CCNCC1 |  | EC50 (Table 9, Beta-3 agonist in vitro functional assay): 100 to 999 nM
O=C(c1ccc(C[C@@H]2CC[C@H]([C@H](O)c3ccccc3)N2)cc1)N1C[C@@H]2[C@H](C1)[C@H]2Cn1cnnn1 | 10 to 99.9 nM | 
O=C(c1ccc(C[C@@H]2CC[C@H]([C@H](O)c3ccccc3)N2)cc1)N1C[C@@H]2[C@H](C1)[C@H]2Cn1cccn1 | 10 to 99.9 nM | 
Cn1nnnc1[C@H]1[C@@H]2CN(C(=O)c3ccc(C[C@@H]4CC[C@H]([C@H](O)c5ccccc5)N4)cc3)C[C@@H]21 | 10 to 99.9 nM | 
O=C(c1ccc(C[C@@H]2CC[C@H]([C@H](O)c3ccccc3)N2)cc1)N1CCC(n2cccn2)CC1 [Example 64, (R)-phenyl[(2R,5S)-5-(4-{[4-(1H-pyrazol-1-yl)-piperidin-1-yl]carbonyl}benzyl)pyrrolidine-2-yl]methanol] |  | EC50 (Table 5, cAMP, CHO cells): 10 to 99.9 nM
O=C(c1ccc(C[C@@H]2CC[C@H]([C@H](O)c3ccccc3)N2)cc1)N1C[C@@H]2[C@H](C1)[C@H]2c1nnc[nH]1 | 10 to 99.9 nM | 
O=C(c1ccc(C[C@@H]2CC[C@H]([C@H](O)c3ccccc3)N2)cc1)N1C[C@@H]2[C@H](C1)[C@H]2c1nnc(C(F)(F)F)o1 | 10 to 99.9 nM | 
Cc1noc([C@H]2[C@@H]3CN(C(=O)c4ccc(C[C@@H]5CC[C@H]([C@H](O)c6ccccc6)N5)cc4)C[C@@H]32)n1 | 10 to 99.9 nM | 
CCNC(=O)[C@H]1[C@@H]2CN(C(=O)c3ccc(C[C@@H]4CC[C@H]([C@H](O)c5ccccc5)N4)cc3)C[C@@H]21 | 10 to 99.9 nM | 

Compound | EC50 (Table 6, cAMP, CHO cells) | also measured
O=C(c1ccc(C[C@@H]2CC[C@H]([C@H](O)c3ccccc3)N2)cc1)N1C[C@@H]2[C@H](C1)[C@H]2c1n[nH]c(=O)o1 | 10 to 99.9 nM | 
CC([C@H]1[C@@H]2CN(C(=O)c3ccc(C[C@@H]4CC[C@H]([C@H](O)c5ccccc5)N4)cc3)C[C@@H]21)n1ncnn1 (some centres unmarked) | 10 to 99.9 nM | 
N[C@@H]1[C@H]2CN(C(=O)c3ccc(C[C@@H]4CC[C@H]([C@H](O)c5ccccc5)N4)cc3)C[C@@H]12 | 100 to 999 nM | 
O=C(c1ccc(C[C@@H]2CC[C@H]([C@H](O)c3ccccc3)N2)cc1)N1C[C@@H]2[C@H](C1)[C@H]2Cn1nccn1 | 10 to 99.9 nM | 
CS(=O)(=O)C1OC2(CCN(C(=O)c3ccc(C[C@@H]4CC[C@H]([C@H](O)c5ccccc5)N4)cc3)CC2)c2ccccc21 (some centres unmarked) |  | EC50 [1]: 10 to 99.9 nM
CC(C)(O)c1nnc([C@H]2[C@@H]3CN(C(=O)c4ccc(C[C@@H]5CC[C@H]([C@H](O)c6ccccc6)N5)cc4)C[C@@H]32)o1 | 10 to 99.9 nM | 
CC(C)n1cc([C@H]2[C@@H]3CN(C(=O)c4ccc(C[C@@H]5CC[C@H]([C@H](O)c6ccccc6)N5)cc4)C[C@@H]32)nn1 | 10 to 99.9 nM | 
O=C(c1ccc(C[C@@H]2CC[C@H]([C@H](O)c3ccccc3)N2)cc1)N1C[C@@H]2[C@H](C1)[C@H]2Cn1ncnn1 | 10 to 99.9 nM | 
O=C(c1ccc(C[C@@H]2CC[C@H]([C@H](O)c3ccccc3)N2)cc1)N1CCN(C2CCCc3cccnc32)CC1 (single isomer, unassigned) |  | EC50 [2]: 10 to 99.9 nM
N#C[C@@H]1[C@H]2CN(C(=O)c3ccc(C[C@@H]4CC[C@H]([C@H](O)c5ccccc5)N4)cc3)C[C@@H]12 | 100 to 999 nM | 
O=C(c1ccc(C[C@@H]2CC[C@H]([C@H](O)c3ccccc3)N2)cc1)N1C[C@@H]2[C@H](C1)[C@H]2Cn1ccnn1 | 100 to 999 nM | 
Cc1nnc([C@H]2[C@@H]3CN(C(=O)c4ccc(C[C@@H]5CC[C@H]([C@H](O)c6ccccc6)N5)cc4)C[C@@H]32)s1 | 10 to 99.9 nM | 
Cc1nnnn1[C@H]1[C@@H]2CN(C(=O)c3ccc(C[C@@H]4CC[C@H]([C@H](O)c5ccccc5)N4)cc3)C[C@@H]21 | 100 to 999 nM | 
Cc1cnc([C@H]2[C@@H]3CN(C(=O)c4ccc(C[C@@H]5CC[C@H]([C@H](O)c6cccnc6)N5)cc4)C[C@@H]32)o1 | 10 to 99.9 nM | 
CCN(C)C(=O)[C@H]1[C@@H]2CN(C(=O)c3ccc(C[C@@H]4CC[C@H]([C@H](O)c5ccccc5)N4)cc3)C[C@@H]21 | 100 to 999 nM | 
Cc1nnc([C@H]2[C@@H]3CN(C(=O)c4ccc(C[C@@H]5CC[C@H]([C@H](O)c6ccccc6)N5)cc4)C[C@@H]32)[nH]1 | 100 to 999 nM | 
O=C(c1ccc(C[C@@H]2CC[C@H]([C@H](O)c3ccccc3)N2)cc1)N1C[C@@H]2[C@H](C1)[C@H]2C(=O)N1CCCC1 | 100 to 999 nM | 

Now from value to compound, other results behind:

EC50 (Table 6, cAMP, CHO cells) | Compound | also measured
10 to 99.9 nM | Cn1cc([C@H]2[C@@H]3CN(C(=O)c4ccc(C[C@@H]5CC[C@H]([C@H](O)c6ccccc6)N5)cc4)C[C@@H]32)nn1 | 
1 to 9.9 nM | O=C(O)[C@H]1[C@@H]2CN(C(=O)c3ccc(C[C@@H]4CC[C@H]([C@H](O)c5ccccc5)N4)cc3)C[C@@H]21 | 
10 to 99.9 nM | CC(C)(O)c1nc([C@H]2[C@@H]3CN(C(=O)c4ccc(C[C@@H]5CC[C@H]([C@H](O)c6ccccc6)N5)cc4)C[C@@H]32)no1 | 
1 to 9.9 nM | Cc1nc([C@H]2[C@@H]3CN(C(=O)c4ccc(C[C@@H]5CC[C@H]([C@H](O)c6ccccc6)N5)cc4)C[C@@H]32)no1 | 
1 to 9.9 nM | Cc1cnc([C@H]2[C@@H]3CN(C(=O)c4ccc(C[C@@H]5CC[C@H]([C@H](O)c6ccccc6)N5)cc4)C[C@@H]32)o1 | 
1 to 9.9 nM | O=C(c1ccc(C[C@@H]2CC[C@H]([C@H](O)c3ccccc3)N2)cc1)N1C[C@@H]2[C@H](C1)[C@H]2c1nnn[nH]1 | 
1 to 9.9 nM | CC(C)n1nnnc1[C@H]1[C@@H]2CN(C(=O)c3ccc(C[C@@H]4CC[C@H]([C@H](O)c5ccccc5)N4)cc3)C[C@@H]21 | 
1 to 9.9 nM | CC(C)n1nnc([C@H]2[C@@H]3CN(C(=O)c4ccc(C[C@@H]5CC[C@H]([C@H](O)c6ccccc6)N5)cc4)C[C@@H]32)n1 | 
1 to 9.9 nM | CC([C@H]1[C@@H]2CN(C(=O)c3ccc(C[C@@H]4CC[C@H]([C@H](O)c5ccccc5)N4)cc3)C[C@@H]21)n1cccn1 (some centres unmarked) | 
10 to 99.9 nM | O=C(c1ccc(C[C@@H]2CC[C@H]([C@H](O)c3ccccc3)N2)cc1)N1C[C@@H]2[C@@H](CO)[C@@H]2C1 | 
1 to 9.9 nM | O=C(c1ccc(C[C@@H]2CC[C@H]([C@H](O)c3ccccc3)N2)cc1)N1C[C@@H]2[C@H](C1)[C@H]2c1nnc(CC(F)(F)F)o1 | 
10 to 99.9 nM | Cc1coc([C@H]2[C@@H]3CN(C(=O)c4ccc(C[C@@H]5CC[C@H]([C@H](O)c6ccccc6)N5)cc4)C[C@@H]32)n1 | 
1 to 9.9 nM | O=C(c1ccc(C[C@@H]2CC[C@H]([C@H](O)c3ccccc3)N2)cc1)N1C[C@@H]2[C@H](C1)[C@H]2c1c[nH]nn1 | 
1 to 9.9 nM | O=C(c1ccc(C[C@@H]2CC[C@H]([C@H](O)c3ccccc3)N2)cc1)N1C[C@@H]2[C@H](C1)[C@H]2c1noc(C2(O)CC2)n1 | 
1 to 9.9 nM | Cc1nnc([C@H]2[C@@H]3CN(C(=O)c4ccc(C[C@@H]5CC[C@H]([C@H](O)c6ccccc6)N5)cc4)C[C@@H]32)o1 | 
< 1 nM | CCOC(=O)[C@H]1[C@@H]2CN(C(=O)c3ccc(C[C@@H]4CC[C@H]([C@H](O)c5ccccc5)N4)cc3)C[C@@H]21 | 
1 to 9.9 nM | O=C(c1ccc(C[C@@H]2CC[C@H]([C@H](O)c3cccnc3)N2)cc1)N1C[C@@H]2[C@H](C1)[C@H]2c1nnco1 | 
1 to 9.9 nM | O=C(c1ccc(C[C@@H]2CC[C@H]([C@H](O)c3ccccc3)N2)cc1)N1C[C@@H]2[C@H](C1)[C@H]2c1ncno1 | 
1 to 9.9 nM | O=C(c1ccc(C[C@@H]2CC[C@H]([C@H](O)c3ccccc3)N2)cc1)N1C[C@@H]2[C@H](C1)[C@H]2c1noc(C2CC2)n1 | 
1 to 9.9 nM | O=C(c1ccc(C[C@@H]2CC[C@H]([C@H](O)c3ccccc3)N2)cc1)N1C[C@@H]2[C@H](C1)[C@H]2c1nnc(C2CC2)o1 | 
1 to 9.9 nM | O=C(c1ccc(C[C@@H]2CC[C@H]([C@H](O)c3ccccc3)N2)cc1)N1C[C@@H]2[C@H](C1)[C@H]2c1noc(-c2ccccn2)n1 | 
